From patent publication US8501936B2 (priority 2009, dated 2013)

Amino acid sequences for entries named in this document (tags omitted). Residues count along the entry.
UniProt Q05397, whole entry: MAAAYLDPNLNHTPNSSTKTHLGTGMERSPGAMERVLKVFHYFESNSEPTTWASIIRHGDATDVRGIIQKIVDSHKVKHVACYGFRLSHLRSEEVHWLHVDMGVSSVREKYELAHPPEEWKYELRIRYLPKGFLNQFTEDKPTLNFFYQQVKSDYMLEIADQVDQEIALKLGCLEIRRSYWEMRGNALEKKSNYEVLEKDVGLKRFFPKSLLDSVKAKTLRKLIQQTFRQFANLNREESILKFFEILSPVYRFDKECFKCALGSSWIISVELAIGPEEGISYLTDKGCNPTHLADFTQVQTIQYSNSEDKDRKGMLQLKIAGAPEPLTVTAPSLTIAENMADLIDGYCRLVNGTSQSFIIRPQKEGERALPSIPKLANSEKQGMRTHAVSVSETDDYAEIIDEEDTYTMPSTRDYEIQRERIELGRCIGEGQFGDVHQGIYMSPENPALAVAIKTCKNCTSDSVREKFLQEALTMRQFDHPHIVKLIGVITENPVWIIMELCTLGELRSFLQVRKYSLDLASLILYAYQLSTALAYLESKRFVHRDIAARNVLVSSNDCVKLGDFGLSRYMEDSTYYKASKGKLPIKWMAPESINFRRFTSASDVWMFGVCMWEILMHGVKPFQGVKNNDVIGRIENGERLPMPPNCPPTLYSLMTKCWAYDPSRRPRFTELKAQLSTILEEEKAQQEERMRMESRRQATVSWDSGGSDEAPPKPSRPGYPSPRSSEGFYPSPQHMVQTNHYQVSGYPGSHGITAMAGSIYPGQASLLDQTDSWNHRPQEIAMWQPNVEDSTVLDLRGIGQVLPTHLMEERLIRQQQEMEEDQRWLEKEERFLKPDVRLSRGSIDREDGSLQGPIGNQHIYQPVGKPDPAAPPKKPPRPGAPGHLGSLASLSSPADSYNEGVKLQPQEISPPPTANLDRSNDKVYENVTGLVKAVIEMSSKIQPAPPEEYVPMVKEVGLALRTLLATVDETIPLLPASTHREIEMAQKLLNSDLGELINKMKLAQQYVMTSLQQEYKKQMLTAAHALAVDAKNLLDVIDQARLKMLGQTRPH
UniProt O60674, 815-1132: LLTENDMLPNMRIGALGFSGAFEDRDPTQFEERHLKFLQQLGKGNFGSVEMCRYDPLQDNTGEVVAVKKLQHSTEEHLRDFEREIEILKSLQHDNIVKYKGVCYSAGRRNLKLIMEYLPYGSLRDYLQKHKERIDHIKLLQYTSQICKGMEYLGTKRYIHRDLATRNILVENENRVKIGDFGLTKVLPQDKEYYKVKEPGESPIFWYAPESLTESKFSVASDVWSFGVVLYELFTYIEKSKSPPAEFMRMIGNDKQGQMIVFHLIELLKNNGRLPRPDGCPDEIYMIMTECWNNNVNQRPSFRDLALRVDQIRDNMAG
UniProt P52333, 784-1124: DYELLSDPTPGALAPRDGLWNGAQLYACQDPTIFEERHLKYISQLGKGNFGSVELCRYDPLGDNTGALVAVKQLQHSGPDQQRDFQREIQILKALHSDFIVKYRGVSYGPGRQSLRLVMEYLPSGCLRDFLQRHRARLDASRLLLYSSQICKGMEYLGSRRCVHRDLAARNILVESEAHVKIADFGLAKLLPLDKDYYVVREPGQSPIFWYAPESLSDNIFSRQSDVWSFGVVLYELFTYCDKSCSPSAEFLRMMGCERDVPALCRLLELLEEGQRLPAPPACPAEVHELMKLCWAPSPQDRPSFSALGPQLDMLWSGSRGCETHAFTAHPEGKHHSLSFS

What was measured:
[1] = biological target: T1, human FAK (Homo sapiens (Human), UniProt Q05397); assay: biochemical
[2] = biological target: T2, human JAK2 (Homo sapiens (Human), UniProt O60674); assay: biochemical
[3] = biological target: human JAK3 (Homo sapiens (Human), UniProt P52333); assay: biochemical
[4] = biological target: T2, human JAK2; conditions: read-out: JAK2 IC50
[5] = biological target: T1, human FAK; conditions: read-out: FAK IC50
[6] = system: various tumor cell lines; conditions: cited from earlier work

Row | Compound | IC50 [1] [nM] | IC50 [2] [nM] | also measured
1 | CC(C)(C)OC(=O)N1CC[C@@H](c2cccc(Nc3nc4c(-c5ccc(S(C)(=O)=O)cc5)cccn4n3)c2)[C@@H](O)C1 (racemic) [Example 186, (±)-(cis)-3-Hydroxy-4-{3-[8-(4-methanesulfonyl-phenyl)-[1,2,4]triazolo[1,5-a]pyridin-2-ylamino]-phenyl}-piperidine-1-carboxylic acid tert-butyl ester] | 2990 |  | 
2 | CS(=O)(=O)c1ccc(-c2cccn3nc(Nc4cccc([C@@H]5CCN(CC(N)=O)C[C@@H]5O)c4)nc23)cc1 (racemic) [Example 191, (±)-2-((cis)-3-Hydroxy-4-{3-[8-(4-methanesulfonyl-phenyl)-[1,2,4]triazolo[1,5-a]pyridin-2-ylamino]-phenyl}-piperidin-1-yl)-acetamide] | 999 | 0.55 | 
3 | COc1ccccc1-c1cccn2nc(Nc3ccccc3)nc12 [Example 3, [8-(2-Methoxy-phenyl)-[1,2,4]triazolo[1,5-a]pyridin-2-yl]-phenyl-amine] |  | 96.9 | 
4 | c1ccc(Nc2nc3c(-c4cccnc4)cccn3n2)cc1 [Example 7, Phenyl-(8-pyridin-3-yl-[1,2,4]triazolo[1,5-a]pyridin-2-yl)-amine] |  | 149 | IC50 [3]: 3750 nM
5 | CS(=O)(=O)c1ccc(-c2cccc3nc(Nc4ccccc4)nn23)cc1 [Example 74, [5-(4-Methanesulfonyl-phenyl)-[1,2,4]triazolo[1,5-a]pyridin-2-yl]-phenyl-amine] |  | 2.1 | IC50 [3]: 92.7 nM
6 | CN1CCN(c2nc3c(NCc4cccc(N)c4)cccn3n2)CC1 [Example 97, (3-Amino-benzyl)-[2-(4-methyl-piperazin-1-yl)-[1,2,4]triazolo[1,5-a]pyridin-8-yl]-amine] | ≥ 10000 |  | 
7 | CS(=O)(=O)c1ccc(-c2cccn3nc(Nc4cccc(C5CCNCC5)c4)nc23)cc1 [Example 182, [8-(4-Methanesulfonyl-phenyl)-[1,2,4]triazolo[1,5-a]pyridin-2-yl]-(3-piperidin-4-yl-phenyl)-amine] |  | 0.53 | 
8 | COCc1ccccc1-c1cccn2nc(Nc3ccc4c(c3)CCN(C(=O)OC(C)(C)C)CC4)nc12 [Example 241, 7-[8-(2-Methoxymethyl-phenyl)-[1,2,4]triazolo[1,5-a]pyridin-2-yl-amino]-1,2,4,5-tetrahydro-3-benzazepine-3-carboxylic acid tert-butyl ester] | ≥ 10000 | 1100 | 
9 | COCc1ccccc1-c1cccn2nc(Nc3ccc4c(c3)CCNCC4)nc12 [Example 242, [8-(2-Methoxymethyl-phenyl)-[1,2,4]triazolo[1,5-a]pyridin-2-yl]-(2,3,4,5-tetrahydro-1H-3-benzazepin-7-yl)amine] | ≥ 10000 | 131 | 
10 | CCOc1ccccc1-c1cccn2nc(Nc3ccc4c(c3)CCNCC4)nc12 [Example 300, [8-(2-Ethoxy-4-methyl-phenyl]-[1,2,4]triazolo[1,5a]pyridine-2-yl]-(2,3,4,5-tetrahydro-benzo[d]azepin-7-yl)-amine] |  |  | IC50 [4]: 16.5 nM; IC50 [5]: 3000 nM
11 | AG490 |  |  | chemosensitization to cisplatin, fludarabine, adriamycin and doxorubicin [6]: chemosensitized

Like-named read-outs stand apart in the source and are kept apart here.
